Assay results published in publication PMC10470302 (iScience, 2023).

Amino acid sequences for entries named in this document (tags omitted).
UniProt Q8IWX8, whole entry, looked up, tested part not stated: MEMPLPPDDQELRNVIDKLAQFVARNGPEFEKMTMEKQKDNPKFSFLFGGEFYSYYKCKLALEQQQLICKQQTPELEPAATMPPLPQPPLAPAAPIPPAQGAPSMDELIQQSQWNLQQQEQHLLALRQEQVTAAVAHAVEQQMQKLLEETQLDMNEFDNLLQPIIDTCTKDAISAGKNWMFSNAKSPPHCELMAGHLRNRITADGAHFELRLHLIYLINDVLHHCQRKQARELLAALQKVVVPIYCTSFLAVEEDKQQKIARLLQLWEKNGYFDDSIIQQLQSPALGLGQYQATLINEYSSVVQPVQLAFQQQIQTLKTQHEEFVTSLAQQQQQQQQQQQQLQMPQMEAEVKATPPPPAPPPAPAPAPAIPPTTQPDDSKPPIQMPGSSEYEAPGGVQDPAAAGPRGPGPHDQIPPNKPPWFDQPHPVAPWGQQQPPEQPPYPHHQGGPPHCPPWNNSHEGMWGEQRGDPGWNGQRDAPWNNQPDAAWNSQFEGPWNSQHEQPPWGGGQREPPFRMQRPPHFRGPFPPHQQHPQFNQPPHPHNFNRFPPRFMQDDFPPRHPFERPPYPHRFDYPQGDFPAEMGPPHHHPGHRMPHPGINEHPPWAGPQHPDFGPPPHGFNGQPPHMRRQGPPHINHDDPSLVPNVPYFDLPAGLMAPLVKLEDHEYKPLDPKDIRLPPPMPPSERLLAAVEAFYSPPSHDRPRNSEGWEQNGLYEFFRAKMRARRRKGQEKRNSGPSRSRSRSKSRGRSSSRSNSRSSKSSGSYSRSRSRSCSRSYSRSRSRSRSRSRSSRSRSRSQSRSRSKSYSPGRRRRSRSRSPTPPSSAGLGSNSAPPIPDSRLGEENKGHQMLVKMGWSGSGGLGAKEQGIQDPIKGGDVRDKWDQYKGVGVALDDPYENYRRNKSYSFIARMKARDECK

Target: CHERP (SCAF6) 1-916 (UniProt Q8IWX8)
Test: immunofluorescence colocalisation, Pearson coefficient
Conditions: reference: untreated cells; sites S2,T4

RPB1 (largest subunit of RNA polymerase II), CTD 2 µM flavopiridol, 3 h
other: colocalisation correlation value: weaker; reference 0.77
